Results reported in US20050238679A1, “Taurine-containing preparations for improving the skin barrier” (Beiersdorf AG, priority 2004, published 2005).

Assay: interfacial tension towards water as measure of polarity of lipids
Assay type: physicochemical
Details: lipid/oil component against water; regarded as polar if less than 30 mN/m
Source text: Oils and fats differ from one another in their polarity, which is difficult to define. It has already been proposed to adopt the interfacial tension towards water as a measure of the polarity index of an oil or of an oily phase. Then, the lower the interfacial tension between this oily phase and water, the greater the polarity of the oily phase in question. According to the invention, the interfacial tension is regarded as one possible measure of the polarity of a given oil component.
The interfacial tension is the force which acts on an imaginary line one meter in length in the interface between two phases. The physical unit for this interfacial tension is conventionally calculated from the force/length relationship and is usually expressed in mN/m (millinewtons divided by meters). It has a positive sign if it endeavours to reduce the interface. In the converse case, it has a negative sign. For the purposes of the present invention, lipids are regarded as polar if their interfacial tension towards water is less than 30 mN/m.
Nonpolar oils are, for example, those which are chosen from the group of branched and unbranched hydrocarbons and hydrocarbon waxes, in particular Vaseline (petrolatum), paraffin oil, squalane and squalene, polyolefins and hydrogenated polyisobutenes. Among the polyolefins, polydecenes are the preferred substances. […]

CCCCCCCCCCC(CO)CCCCCCCC (stereo not shown) [EUTANOI ® G, Octyldodecanol]
interfacial tension towards water: 24.8 mN/m
